Membrane permeability of cyclic peptides

PAMPA measures passive passage through an artificial lipid membrane. Values are log10 P with P in cm/s, so -5 is more permeable than -7.

compound | PAMPA (log10 cm/s)
CC(C)C[C@@H]1NC(=O)[C@H]2CCCN2C(=O)[C@H](CC(C)C)N(C)C(=O)[C@H](CC(C)C)NC(=O)[C@H](C)N(C)C(=O)[C@H]2CCCN2C(=O)[C@H](Cc2ccccc2)NC1=O | -5.73
CC(C)C[C@@H]1C(=O)N[C@@H](Cc2ccccc2)C(=O)N2CCC[C@H]2C(=O)N[C@H](C)C(=O)N(C)[C@@H](CC(C)C)C(=O)N[C@@H](Cc2ccccc2)CC(=O)N2CCC[C@H]2C(=O)N1C | -5.69
CC(C)C[C@@H]1NC(=O)[C@@H]2CCCN2C(=O)CN(Cc2ccccc2)C(=O)[C@@H](CC(C)C)NC(=O)C[C@H](Cc2ccccc2)NC(=O)[C@H](Cc2ccccc2)NC1=O | -5.55
CC(C)C[C@H]1NC(=O)[C@@H]2CCCN2C(=O)C[C@H](Cc2ccccc2)NC(=O)[C@H](CC(C)C)N(C)C(=O)[C@H](C)N(C)C(=O)[C@H]2CCCN2C(=O)[C@H](Cc2ccccc2)NC1=O | -6.45
CC(C)C[C@@H]1NC(=O)[C@H]2CCCN2C(=O)[C@H](CC(C)C)NC(=O)CN(Cc2ccccc2)C(=O)[C@H](C)N(C)C(=O)[C@H](Cc2ccccc2)NC1=O | -5.22
CC(C)C[C@@H]1C(=O)N2CCC[C@H]2C(=O)N(C)[C@@H](CC(C)C)C(=O)N[C@@H](Cc2ccccc2)C(=O)N2CCC[C@H]2C(=O)N(C)[C@@H](C)C(=O)N(C)[C@@H](CC(C)C)C(=O)N1C | -5.40
CC(C)C[C@@H]1C(=O)N[C@@H](Cc2ccccc2)CC(=O)N2CCC[C@H]2C(=O)N(C)[C@@H](CC(C)C)C(=O)N[C@@H](Cc2ccccc2)C(=O)N(C)[C@@H](C)C(=O)N1C | -4.75
CC(C)C[C@@H]1C(=O)N[C@@H](Cc2ccccc2)CC(=O)N2CCC[C@@H]2C(=O)N[C@H](CC(C)C)C(=O)N[C@@H](Cc2ccccc2)C(=O)N2CCC[C@@H]2C(=O)N[C@@H](Cc2ccccc2)CC(=O)N1C | -5.86
CCCN1CC(=O)N[C@@H](CC(C)C)C(=O)N[C@@H](CC(C)C)C(=O)N2CCC[C@H]2C(=O)N[C@@H](CC(C)C)C(=O)N[C@@H](Cc2ccccc2)C(=O)N2CCC[C@@H]2C1=O | -5.82
CCCN1CC(=O)N(C)[C@H](CC(C)C)C(=O)N(Cc2ccccc2)CC(=O)N2CCC[C@@H]2C(=O)N(C)[C@H](CC(C)C)C(=O)N[C@@H](Cc2ccccc2)C(=O)N2CCC[C@H]2C1=O | -6.12
CCCN1CC(=O)N(C)[C@H](CC(C)C)C(=O)N[C@@H](Cc2ccccc2)CC(=O)N2CCC[C@H]2C(=O)N[C@@H](CC(C)C)C(=O)N[C@@H](Cc2ccccc2)C(=O)N2CCC[C@H]2C1=O | -5.73
CC(C)C[C@@H]1NC(=O)[C@@H]2CCCN2C(=O)[C@@H](CC(C)C)N(C)C(=O)[C@H](CC(C)C)N(C)C(=O)[C@@H](C)NC(=O)[C@H]2CCCN2C(=O)[C@H](Cc2ccccc2)NC1=O | -5.87
CC(C)C[C@@H]1NC(=O)[C@@H](C)N(C)C(=O)[C@H]2CCCN2C(=O)[C@H](Cc2ccccc2)NC(=O)CN(Cc2ccccc2)C(=O)[C@@H]2CCCN2C(=O)[C@H](CC(C)C)NC1=O | -5.41
CC(C)C[C@@H]1NC(=O)[C@H]2CCCN2C(=O)C[C@H](Cc2ccccc2)NC(=O)[C@@H](CC(C)C)NC(=O)C[C@H](Cc2ccccc2)NC(=O)[C@@H]2CCCN2C(=O)[C@H](Cc2ccccc2)NC1=O | -5.57
CC(C)C[C@@H]1C(=O)N[C@@H](Cc2ccccc2)CC(=O)N2CCC[C@H]2C(=O)N(C)[C@H](CC(C)C)C(=O)N[C@@H](Cc2ccccc2)C(=O)N2CCC[C@H]2C(=O)N[C@H](C)C(=O)N1C | -5.88
CC(C)C[C@@H]1C(=O)N[C@H](CC(C)C)C(=O)N2CCC[C@@H]2C(=O)N[C@H](CC(C)C)C(=O)N[C@@H](Cc2ccccc2)C(=O)N(C)[C@H](C)C(=O)N1C | -5.86
CC(C)C[C@@H]1NC(=O)[C@@H](C)NC(=O)[C@H](Cc2ccccc2)NC(=O)[C@H](CC(C)C)N(C)C(=O)[C@H]2CCCN2C(=O)[C@@H](CC(C)C)N(C)C1=O | -5.47
CC(C)C[C@H]1C(=O)N(C)[C@@H](CC(C)C)C(=O)N2CCC[C@H]2C(=O)N(Cc2ccccc2)CC(=O)N[C@@H](Cc2ccccc2)C(=O)N2CCC[C@@H]2C(=O)N(C)[C@@H](C)C(=O)N1C | -5.03
CC(C)C[C@@H]1NC(=O)[C@H]2CCCN2C(=O)[C@H](CC(C)C)N(C)C(=O)[C@H](CC(C)C)NC(=O)[C@@H](C)N(C)C(=O)[C@@H]2CCCN2C(=O)[C@H](Cc2ccccc2)NC1=O | -5.64
CC(C)C[C@@H]1C(=O)N2CCC[C@H]2C(=O)N(C)[C@H](CC(C)C)C(=O)N[C@@H](Cc2ccccc2)C(=O)N2CCC[C@@H]2C(=O)N[C@@H](Cc2ccccc2)CC(=O)N[C@H](CC(C)C)C(=O)N1C | -5.32
CCCN1CC(=O)N(C)[C@H](CC(C)C)C(=O)N(C)[C@@H](CC(C)C)C(=O)N2CCC[C@H]2C(=O)N(Cc2ccccc2)CC(=O)N[C@@H](Cc2ccccc2)C1=O | -4.97
CC(C)C[C@H]1NC(=O)[C@@H]2CCCN2C(=O)[C@H](CC(C)C)N(C)C(=O)[C@H](CC(C)C)N(C)C(=O)[C@H](C)N(C)C(=O)[C@H]2CCCN2C(=O)[C@H](Cc2ccccc2)NC1=O | -5.73
CC(C)C[C@@H]1C(=O)N[C@H](CC(C)C)C(=O)N2CCC[C@H]2C(=O)N(C)[C@H](CC(C)C)C(=O)N[C@@H](Cc2ccccc2)C(=O)N2CCC[C@@H]2C(=O)N[C@H](C)C(=O)N1C | -5.24

2 of these entries, quoted again:

{"smiles": "CC(C)C[C@@H]1C(=O)N2CCC[C@H]2C(=O)N(C)[C@H](CC(C)C)C(=O)N[C@@H](Cc2ccccc2)C(=O)N2CCC[C@@H]2C(=O)N[C@@H](Cc2ccccc2)CC(=O)N[C@H](CC(C)C)C(=O)N1C", "PAMPA (log10 cm/s)": "-5.32"}
{"smiles": "CC(C)C[C@@H]1C(=O)N2CCC[C@H]2C(=O)N(C)[C@@H](CC(C)C)C(=O)N[C@@H](Cc2ccccc2)C(=O)N2CCC[C@H]2C(=O)N(C)[C@@H](C)C(=O)N(C)[C@@H](CC(C)C)C(=O)N1C", "PAMPA (log10 cm/s)": "-5.40"}

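The data file gives no further conditions (lipid, pH, time, direction or concentration), and values from different papers need not be comparable. Other peptides of the study may be missing here. Entries at the database's floor value (log10 P of -10) are not listed.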

Data: CycPeptMPDB; original report Townsend et al. 2020, doi:10.26434/chemrxiv.13335941.v1.